Measurements reported in publication PMC6459613 (ACS chemical biology, 2012).

Protein sequences, listed by entry. Tags and fused reporters are not part of them.
UniProt Q16539, whole entry: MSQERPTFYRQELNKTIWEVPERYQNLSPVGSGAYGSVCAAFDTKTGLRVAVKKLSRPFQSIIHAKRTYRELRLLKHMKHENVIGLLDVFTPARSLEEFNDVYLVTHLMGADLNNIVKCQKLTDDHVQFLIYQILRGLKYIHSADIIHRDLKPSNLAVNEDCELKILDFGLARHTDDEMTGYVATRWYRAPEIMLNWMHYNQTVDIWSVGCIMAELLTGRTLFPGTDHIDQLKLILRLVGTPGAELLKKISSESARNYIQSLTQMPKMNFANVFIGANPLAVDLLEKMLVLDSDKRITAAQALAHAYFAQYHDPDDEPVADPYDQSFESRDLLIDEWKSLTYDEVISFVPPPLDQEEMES

Key:
Assay type in all cases: biochemical
[1] = target: JNK2 (W324A) (Homo sapiens, UniProt P45984, W324A); assay: Phosphorylation of GST-c-Jun
[2] = target: p38MAPKα (Homo sapiens, UniProt Q16539); assay: MAP kinase selectivity assay, p38MAPKα
[3] = target: JNK2 (C163A) (Homo sapiens, UniProt P45984, C163A); assay: Phosphorylation of GST-c-Jun
[4] = target: JNK2 (Y130A) (Homo sapiens, UniProt P45984, Y130A); assay: Phosphorylation of GST-c-Jun
[5] = target: JNK2 (D326A) (Homo sapiens, UniProt P45984, D326A); assay: Phosphorylation of GST-c-Jun
[6] = target: JNK2 (T164A) (Homo sapiens, UniProt P45984, T164A); assay: Phosphorylation of GST-c-Jun
[7] = target: JNK2 (R127A) (Homo sapiens, UniProt P45984, R127A); assay: Phosphorylation of GST-c-Jun
[8] = target: JNK2 (Homo sapiens, UniProt P45984); assay: Phosphorylation of GST-c-Jun; conditions: JNK2 WT

% Inhibition at 200 μM [1]: 98% | IC50 [2]: > 200 µM | % Inhibition at Saturating (−)-zuonin A (200 μM) ([2]; 200 μM): 20% | IC50 [3]: 37 ± 2.5 µM | % Inhibition at 200 μM ([3]; 200 μM): 37% | IC50 [4]: 2.3 ± 0.16 µM | % Inhibition at 200 μM ([4]; 200 μM): 95% | IC50 [5]: 2.8 ± 0.32 µM | % Inhibition at 200 μM ([5]; 200 μM): 71% | IC50 [6]: 13.6 ± 1.5 µM | % Inhibition at 200 μM ([6]; 200 μM): 39% | IC50 [7]: 14 ± 2.1 µM | % Inhibition at Saturating (−)-zuonin A (200 μM) ([8]; 200 μM): 70% | IC50 ([8]; GST-c-Jun 2 μM): 2.9 ± 0.17 µM
Substance: (−)-zuonin A
